The text below walks through data of patent US20160158369A1, “PHARMACEUTICAL COMPOSITION FOR RESPIRATORY ADMINISTRATION” (SEIKAGAKU CORPORATION, priority 2013, published 2016).

The series is described as follows: Drug dissociation test: polysaccharide derivative in buffer solution, 36°C, 1 week, HPLC. The class given is physicochemical. The method, then: In the examples relating to drug dissociation test, the drug dissociation ratio was evaluated as described below.
Sodium dihydrogen phosphate dihydrate (780 mg (5.0 mmol)) was dissolved in 500 mL of distilled water to give a liquid A. Separately, disodium hydrogen phosphate dodecahydrate (1.79 g (5.0 mmol)) was dissolved in 500 mL of distilled water to give a liquid B. By mixing the liquid A and liquid B at ratio of 2:3, a phosphate buffer solution of pH 7.5 was prepared.
0.62 g (10 mmol) of boric acid and 0.75 g (10 mmol) of potassium chloride were weighed and dissolved in 500 mL of distilled water to give a liquid C. Separately, by diluting 0.1 N sodium hydroxide solution with distilled water (×10 dilution), a liquid D was prepared.
50 mL of the liquid C and 7 mL of the liquid D were added to a 100 mL mess flask, and according to dilution to 100 mL with distilled water, a borate buffer solution of pH 8.0 was prepared. Furthermore, 50 mL of the liquid C and 40 mL of the liquid D were added to a 100 mL mess flask, and according to mess-up to 100 mL with distilled water, a borate buffer solution of pH 9.0 was prepared.
Each polysaccharide derivative obtained from above was dissolved in a buffer solution at each pH so as to have a concentration of 5 mg/10 mL, and heated for 1 week in an incubator at 36° C. Then, the drug dissociation ratio during the incubation was evaluated every 24 hours by liquid chromatography (HPLC).
The evaluation was performed by measuring the ratio between the drug amount remained in a polysaccharide derivative and the dissociated drug amount according to use of a size exclusion chromatography column (manufactured by TOSOH, TSKgel α-6000, 7.8 mmI.D.×30 cm).
Detailed conditions for the liquid chromatography are as follows.
Analysis time: 40 minutes
Solution for elution: acetonitrile (for HPLC):physiological saline=1:2
Detector: UV detector (240 nm)

Turning to “Chondroitin Sulfate Introduced with 21-(α-N-Acetyl)-Ornithyl-Betamethasone [Compound xiii]”, the “Dissociation ratio (%/day)” value (pH 7.4, 36°C) was found to be 1.8 %/day; the “Dissociation ratio (%/day)” value (pH 7.5, 36°C) is 1.9 %/day; the “Dissociation ratio (%/day)” value (pH 8.0, 36°C) is listed as 3.3 %/day; the “Dissociation ratio (%/day)” value (pH 8.1, 36°C) was determined as 3.4 %/day. In addition, the drug dissociation ratio (pH 7.5, 36°C, day 0) is 0.5%; the drug dissociation ratio (pH 7.5, 36°C, day 1) turned out to be 4.8%; the drug dissociation ratio (pH 7.5, 36°C, day 2) was 6.6%; the drug dissociation ratio (pH 7.5, 36°C, day 3) amounted to 8.5%; the drug dissociation ratio (pH 7.5, 36°C, day 4) was determined as 9.7%; the drug dissociation ratio (pH 7.5, 36°C, day 5) amounted to 10.8%. The drug dissociation ratio by setting is: (pH 7.5, 36°C, day 6) 12.2%; (pH 7.5, 36°C, day 7) 13.2%; (pH 8.1, 36°C, day 0) 0.7%; (pH 8.1, 36°C, day 1) 7.5%; (pH 8.1, 36°C, day 2) 11.2%; (pH 8.1, 36°C, day 3) 14.1%. In addition, the drug dissociation ratio is, setting by setting: (pH 8.1, 36°C, day 4) 17.2%; (pH 8.1, 36°C, day 5) 19.7%; (pH 8.1, 36°C, day 6) 21.8%; (pH 8.1, 36°C, day 7) 23.9%.

In the case of “Chondroitin Sulfate Introduced with 21-Alanyl-Betamethasone [Compound ix]”, the “Dissociation ratio (%/day)” value is, setting by setting: (pH 7.4, 36°C) 1.6 %/day; (pH 8.0, 36°C) 4.2 %/day. Moreover, the drug dissociation ratio is listed as 0.4% (pH 7.4, 36°C, day 0); 2.0% (pH 7.4, 36°C, day 1); 3.6% (pH 7.4, 36°C, day 2); 5.3% (pH 7.4, 36°C, day 3); 8.7% (pH 7.4, 36°C, day 4); 11.0% (pH 7.4, 36°C, day 5). In addition, the drug dissociation ratio (pH 7.4, 36°C, day 6) was determined as 12.2%; the drug dissociation ratio (pH 7.4, 36°C, day 7) was 11.5%; the drug dissociation ratio (pH 8.0, 36°C, day 0) worked out at 1.7%; the drug dissociation ratio (pH 8.0, 36°C, day 1) is on record as 6.3%; the drug dissociation ratio (pH 8.0, 36°C, day 2) is on record as 10.9%; the drug dissociation ratio (pH 8.0, 36°C, day 3) came out at 16.1%. Besides, the drug dissociation ratio (pH 8.0, 36°C, day 4) is reported as 21.7%; the drug dissociation ratio (pH 8.0, 36°C, day 5) came to 26.1%; the drug dissociation ratio (pH 8.0, 36°C, day 6) is on record as 28.3%; the drug dissociation ratio (pH 8.0, 36°C, day 7) amounted to 29.3%.

For the substance “Chondroitin Sulfate Introduced with 21-Glycyl-Betamethasone [Compound x]”, the “Dissociation ratio (%/day)” value was determined as 3.1 %/day (pH 7.4, 36°C) and 7.2 %/day (pH 8.0, 36°C). Further, the drug dissociation ratio (pH 7.4, 36°C, day 0) is 1.1%; the drug dissociation ratio (pH 7.4, 36°C, day 1) was determined as 5.7%; the drug dissociation ratio (pH 7.4, 36°C, day 2) came to 9.3%; the drug dissociation ratio (pH 7.4, 36°C, day 3) turned out to be 11.0%; the drug dissociation ratio (pH 7.4, 36°C, day 4) amounted to 15.4%; the drug dissociation ratio (pH 7.4, 36°C, day 5) is on record as 19.6%. Further, the drug dissociation ratio is listed as 22.1% (pH 7.4, 36°C, day 6); 22.0% (pH 7.4, 36°C, day 7); 4.3% (pH 8.0, 36°C, day 0); 14.4% (pH 8.0, 36°C, day 1); 23.5% (pH 8.0, 36°C, day 2); 29.3% (pH 8.0, 36°C, day 3). For the same substance, the drug dissociation ratio was 37.8% (pH 8.0, 36°C, day 4); 44.7% (pH 8.0, 36°C, day 5); 48.7% (pH 8.0, 36°C, day 6); 50.6% (pH 8.0, 36°C, day 7).

Consider “Chondroitin Sulfate Introduced with 21-Isoleucyl-Betamethasone [Compound xi]”, for which the drug dissociation ratio is, setting by setting: (pH 7.4, 36°C, day 0) 0.5%; (pH 7.4, 36°C, day 1) 0.2%; (pH 7.4, 36°C, day 2) 0.2%; (pH 7.4, 36°C, day 3) 0.2%; (pH 7.4, 36°C, day 4) 1.5%; (pH 7.4, 36°C, day 5) 2.1%. For the same substance, the drug dissociation ratio is listed as 1.9% (pH 7.4, 36°C, day 6); 0.6% (pH 7.4, 36°C, day 7); 0.0% (pH 8.0, 36°C, day 0); 0.5% (pH 8.0, 36°C, day 1); 0.7% (pH 8.0, 36°C, day 2); 1.1% (pH 8.0, 36°C, day 3). The drug dissociation ratio is, setting by setting: (pH 8.0, 36°C, day 4) 2.8%; (pH 8.0, 36°C, day 5) 3.8%; (pH 8.0, 36°C, day 6) 4.3%; (pH 8.0, 36°C, day 7) 2.8%.

Turning to “Chondroitin Sulfate Introduced with 21-β-Alanyl-Prednisolone [Compound xiv]”, the “Dissociation ratio (%/day)” value (pH 7.4, 36°C) is recorded as 2.3 %/day; the “Dissociation ratio (%/day)” value (pH 7.5, 36°C) is given as 2.3 %/day; the “Dissociation ratio (%/day)” value (pH 8.0, 36°C) was determined as 5.4 %/day; the “Dissociation ratio (%/day)” value (pH 8.1, 36°C) is recorded as 5.4 %/day. Further, the drug dissociation ratio was 0.3% (pH 7.5, 36°C, day 0); 3.4% (pH 7.5, 36°C, day 1); 5.7% (pH 7.5, 36°C, day 2); 8.1% (pH 7.5, 36°C, day 3); 10.4% (pH 7.5, 36°C, day 4); 12.4% (pH 7.5, 36°C, day 5). In addition, the drug dissociation ratio by setting is: (pH 7.5, 36°C, day 6) 14.5%; (pH 7.5, 36°C, day 7) 16.3%; (pH 8.1, 36°C, day 0) 0.3%; (pH 8.1, 36°C, day 1) 8.2%; (pH 8.1, 36°C, day 2) 14.3%; (pH 8.1, 36°C, day 3) 20.4%. The drug dissociation ratio by setting is: (pH 8.1, 36°C, day 4) 26.1%; (pH 8.1, 36°C, day 5) 29.8%; (pH 8.1, 36°C, day 6) 34.4%; (pH 8.1, 36°C, day 7) 38.0%.

As to “Chondroitin Sulfate Introduced with Betamethasone [Compound xxi]”, the “Dissociation ratio (%/day)” value came to 2.7 %/day (pH 7.4, 36°C); 2.6 %/day (pH 7.5, 36°C); 3.9 %/day (pH 8.0, 36°C); 3.6 %/day (pH 8.1, 36°C). The drug dissociation ratio reads like this: (pH 7.5, 36°C, day 0) 0.0%; (pH 7.5, 36°C, day 1) 5.1%; (pH 7.5, 36°C, day 2) 7.7%; (pH 7.5, 36°C, day 3) 10.1%; (pH 7.5, 36°C, day 4) 12.2%; (pH 7.5, 36°C, day 5) 14.2%. In addition, the drug dissociation ratio is, setting by setting: (pH 7.5, 36°C, day 6) 16.3%; (pH 7.5, 36°C, day 7) 18.2%; (pH 8.1, 36°C, day 0) 0.0%; (pH 8.1, 36°C, day 1) 7.2%; (pH 8.1, 36°C, day 2) 10.2%; (pH 8.1, 36°C, day 3) 13.8%. In addition, the drug dissociation ratio runs as follows: (pH 8.1, 36°C, day 4) 17.0%; (pH 8.1, 36°C, day 5) 20.8%; (pH 8.1, 36°C, day 6) 23.2%; (pH 8.1, 36°C, day 7) 25.4%.

Take “Chondroitin Sulfate Introduced with High Amount of 21-β-Alanyl-Betamethasone [Compound ib]”: the “Dissociation ratio (%/day)” value (pH 7.4, 36°C) is given as 0.7 %/day and the “Dissociation ratio (%/day)” value (pH 8.0, 36°C) is given as 2.1 %/day. In addition, the drug dissociation ratio is 0.5% (pH 7.4, 36°C, day 0); 1.2% (pH 7.4, 36°C, day 1); 1.7% (pH 7.4, 36°C, day 2); 2.4% (pH 7.4, 36°C, day 3); 3.2% (pH 7.4, 36°C, day 4); 3.8% (pH 7.4, 36°C, day 5). Besides, the drug dissociation ratio (pH 7.4, 36°C, day 6) amounted to 4.4%; the drug dissociation ratio (pH 7.4, 36°C, day 7) worked out at 5.0%; the drug dissociation ratio (pH 8.0, 36°C, day 0) is 0.6%; the drug dissociation ratio (pH 8.0, 36°C, day 1) came out at 2.9%; the drug dissociation ratio (pH 8.0, 36°C, day 2) amounted to 4.8%; the drug dissociation ratio (pH 8.0, 36°C, day 3) was determined as 6.7%. Moreover, the drug dissociation ratio runs as follows: (pH 8.0, 36°C, day 4) 9.4%; (pH 8.0, 36°C, day 5) 11.4%; (pH 8.0, 36°C, day 6) 13.2%; (pH 8.0, 36°C, day 7) 15.0%.
